This passage reports Ki results from BindingDB's records for 23134120 (University of Innsbruck, 2012).

By UniProt entry, the sequences of proteins in these tests, tags left out.
UniProt P41143, whole entry, looked up: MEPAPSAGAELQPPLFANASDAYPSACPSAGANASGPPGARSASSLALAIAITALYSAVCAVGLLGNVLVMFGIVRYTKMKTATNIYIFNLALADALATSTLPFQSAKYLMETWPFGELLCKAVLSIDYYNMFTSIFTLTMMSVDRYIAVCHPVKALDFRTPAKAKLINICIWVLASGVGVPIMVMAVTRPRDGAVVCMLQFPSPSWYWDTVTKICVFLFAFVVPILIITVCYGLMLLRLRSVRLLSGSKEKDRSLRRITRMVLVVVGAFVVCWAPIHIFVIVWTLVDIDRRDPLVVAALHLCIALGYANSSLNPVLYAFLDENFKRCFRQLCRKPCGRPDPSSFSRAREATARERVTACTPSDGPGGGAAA

Bounds are passed on as bounds.

This experiment deals with Delta-type opioid receptor (Homo sapiens, UniProt P41143). Kind of experiment: Displacement of [3H]pCl-DPDPE from human delta opioid receptor expressed in CHO cell membranes incubated for 60 mins by liquid scintillation counting. Background: In a radioligand displacement assay an active substance lowers the binding of a labelled ligand.

Turning to `CN(C(=O)Cc1ccccc1)[C@H]1C[C@@]2(CCCO2)CC[C@@H]1N1CCCC1`, the Ki (usually the dissociation constant of the complex between target and ligand, obtained from inhibition or displacement) is above 10 µM.
